The record followed here is patent US20040072753.

For this series, the system named is Aβ 1-40.

As to “recombinant p34-cdc2/cyclin B1 (Promega)”, the “Michaelis constant (KM) for the phosphorylation” value stood at 5.2 µM.
